Measured values published in patent US9611262B2, “Substituted 2-azabicycles and their use as orexin receptor modulators” (JANSSEN PHARMACEUTICA NV, priority 2014, dated 2017).

Chains of the proteins cited; added tags and fusions are not shown.
UniProt O43613, whole entry: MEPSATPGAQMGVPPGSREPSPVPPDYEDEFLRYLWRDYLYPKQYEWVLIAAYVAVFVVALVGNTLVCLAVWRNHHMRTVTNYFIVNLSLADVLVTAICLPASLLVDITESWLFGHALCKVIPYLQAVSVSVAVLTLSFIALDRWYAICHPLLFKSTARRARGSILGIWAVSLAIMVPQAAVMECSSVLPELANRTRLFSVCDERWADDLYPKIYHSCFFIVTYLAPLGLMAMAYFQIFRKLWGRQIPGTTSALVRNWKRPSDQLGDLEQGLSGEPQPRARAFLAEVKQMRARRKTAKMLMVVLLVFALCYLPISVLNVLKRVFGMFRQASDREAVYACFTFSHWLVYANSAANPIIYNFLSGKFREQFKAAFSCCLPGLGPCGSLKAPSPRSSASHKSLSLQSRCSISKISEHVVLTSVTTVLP

Columns and labels:
[1] = molecular target: rat orexin 1 receptor (Rattus norvegicus, UniProt P56718); experiment: Rat orexin 1 receptor radioligand binding (competitive); details: HEK293 cells stably expressing rat orexin 1 receptor; 4 nM radioligand; averages of 2-20 runs; read-out: rOX1 Ki
In short: (§1)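 Competition binding used HEK293 cells expressing rat OX1 or CHO cells expressing human OX1, with 4 nM final [3H]-labelled thiazolyl-oxadiazolyl-pyrrolidinyl methanone radioligand in PBS. Compounds were tested at 7 concentrations (0.1 nM–10 μM) for 60 min at room temperature, then filtered; 10 μM almorexant defined nonspecific binding. Ki was derived from the one-site IC50 and the radioligand Kd.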

[2] = molecular target: human orexin 1 receptor (Homo sapiens (Human), UniProt O43613); experiment: Human orexin 1 receptor radioligand binding (competitive); details: CHO cells stably expressing human orexin 1 receptor; 4 nM radioligand; averages of 2-20 runs; read-out: hOX1 Ki
In short: as §1

| Ki [1] [nM] | Ki [2] [nM] | Compound |
| --- | --- | --- |
| 4 | 5 | CC1C2CC(Nc3cnc(C(F)(F)F)cn3)C(C2)N1C(=O)c1ccccc1-n1nccn1 (single isomer, unassigned) [Example 68B, (2-(2H-1,2,3-triazol-2-yl)phenyl)((1S*,3R*,4S*,6R*)-3-methyl-6-((5-(trifluoromethyl)pyrazin-2-yl)amino)-2-azabicyclo[2.2.1]heptan-2-yl)methanone] |
| 7 | 5 | Cc1ccc(-n2nccn2)c(C(=O)N2C(C)C3CC(Nc4cnc(C(F)(F)F)cn4)C2C3)n1 (single isomer, unassigned) [Example 69B, (6-methyl-3-(2H-1,2,3-triazol-2-yl)pyridin-2-yl)((1S*,3R*,4S*,6R*)-3-methyl-6-((5-(trifluoromethyl)pyrazin-2-yl)amino)-2-azabicyclo[2.2.1]heptan-2-yl)methanone] |
| 90 | 83 | Cc1ccc(-n2nccn2)c(C(=O)N2C(C)C3CC(Nc4cnc(C(F)(F)F)cn4)C2C3)n1 (single isomer, unassigned) [Example 6, (R/S)-(6-methyl-3-(2H-1,2,3-triazol-2-yl)pyridin-2-yl)(3-methyl-6-((5-(trifluoromethyl)pyrazin-2-yl)amino)-2-azabicyclo[2.2.1]heptan-2-yl)methanone] |
| 12 | 11 | CC1C2CC(Oc3ccc(C(F)(F)F)cn3)C(C2)N1C(=O)c1ccccc1-c1ncccn1 (racemic) [Example 15, (R/S)-(3-methyl-6-((5-(trifluoromethyl)pyridin-2-yl)oxy)-2-azabicyclo[2.2.1]heptan-2-yl)(2-(pyrimidin-2-yl)phenyl)methanone] |
| 11 | 11 | CC1C2CC(Oc3ccc(C(F)(F)F)cn3)C(C2)N1C(=O)c1ccc(F)cc1-c1ncccn1 (racemic) [Example 17, (R/S)-(4-fluoro-2-(pyrimidin-2-yl)phenyl)(−3-methyl-6-((5-(trifluoromethyl)pyridin-2-yl)oxy)-2-azabicyclo[2.2.1]heptan-2-yl)methanone] |
| 3 | 5 | CC1C2CC(Oc3ccc(C(F)(F)F)cn3)C(C2)N1C(=O)c1cc(F)ccc1-c1ncccn1 (single isomer, unassigned) [Example 18B, (5-fluoro-2-(pyrimidin-2-yl)phenyl)((1S*,3R*,4R*,6R*)-3-methyl-6-((5-(trifluoromethyl)pyridin-2-yl)oxy)-2-azabicyclo[2.2.1]heptan-2-yl)methanone] |
| 5 | 6 | Cc1ccc(-n2nccn2)c(C(=O)N2C(C)C3CC(Oc4ccc(C(F)(F)F)cn4)C2C3)n1 (single isomer, unassigned) [Example 22B, (6-methyl-3-(2H-1,2,3-triazol-2-yl)pyridin-2-yl)((1S*,3R*,4R*,6R*)-3-methyl-6-((5-(trifluoromethyl)pyridin-2-yl)oxy)-2-azabicyclo[2.2.1]heptan-2-yl)methanone] |
| 6 | 15 | Cc1cnc(C(=O)N2[C@H](C)[C@H]3C[C@@H](Oc4ccc(C(F)(F)F)cn4)[C@@H]2C3)c(-n2nccn2)c1 (relative stereo) [Example 24, (5-methyl-3-(2H-1,2,3-triazol-2-yl)pyridin-2-yl)((1S*,3R*,4R*,6R*)-3-methyl-6-((5-(trifluoromethyl)pyridin-2-yl)oxy)-2-azabicyclo[2.2.1]heptan-2-yl)methanone] |
| 29 | 55 | Cc1cnc(C(=O)N2[C@H](C)[C@H]3C[C@@H](Oc4cnc(C(F)(F)F)cn4)[C@@H]2C3)c(-n2nccn2)c1 (relative stereo) [Example 48, (5-methyl-3-(2H-1,2,3-triazol-2-yl)pyridin-2-yl)((1S*,3R*,4R*,6R*)-3-methyl-6-((5-(trifluoromethyl)pyrazin-2-yl)oxy)-2-azabicyclo[2.2.1]heptan-2-yl)methanone] |
| 233 | 308 | CC1C2CC(Nc3cnc(C(F)(F)F)cn3)C(C2)N1C(=O)c1ccccc1-n1nccn1 (single isomer, unassigned) [Example 68A, (2-(2H-1,2,3-triazol-2-yl)phenyl)((1R*,3S*,4R*,6S*)-3-methyl-6-((5-(trifluoromethyl)pyrazin-2-yl)amino)-2-azabicyclo[2.2.1]heptan-2-yl)methanone] |
| 15 | 15 | CC1C2CC(Oc3ccc(C(F)(F)F)cn3)C(C2)N1C(=O)c1ncccc1-n1nccn1 (racemic) [Example 9, (R/S)-(3-(2H-1,2,3-triazol-2-yl)pyridin-2-yl)(3-methyl-6-((5-(trifluoromethyl)pyridin-2-yl)oxy)-2-azabicyclo[2.2.1]heptan-2-yl)methanone] |
| 7 | 10 | CCC1C2CC(Oc3ccc(C(F)(F)F)cn3)C(C2)N1C(=O)c1ccccc1-c1ncccn1 (racemic) [Example 214, (R/S)-[2-ethyl-5-[[5-(trifluoromethyl)-2-pyridyl]oxy]-3-azabicyclo[2.2.1]heptan-3-yl]-(2-pyrimidin-2-ylphenyl)methanone] |
| 145 | 314 | CCOc1ccc(C)nc1C(=O)N1[C@H](C)[C@H]2C[C@@H](Oc3cnc(C(F)(F)F)cn3)[C@@H]1C2 (relative stereo) [Example 56, (3-ethoxy-6-methylpyridin-2-yl)((1S*,3R*,4R*,6R*)-3-methyl-6-((5-(trifluoromethyl)pyrazin-2-yl)oxy)-2-azabicyclo[2.2.1]heptan-2-yl)methanone] |
| 21 | 30 | Cc1ccc(-n2nccn2)c(C(=O)N2C(CF)C3CC(Oc4ccc(C(F)(F)F)cn4)C2C3)n1 (racemic) [Example 70] |
| 11 | 6 | CC1C2CC(Nc3cnc(C(F)(F)F)cn3)C(C2)N1C(=O)c1ccccc1-n1nccn1 (racemic) [Example 68, (R/S)-(2-(2H-1,2,3-triazol-2-yl)phenyl)(3-methyl-6-((5-(trifluoromethyl)pyrazin-2-yl)amino)-2-azabicyclo[2.2.1]heptan-2-yl)methanone] |
| 10 | 10 | C[C@@H]1[C@H]2C[C@@H](Oc3cnc4cc(F)c(F)cc4n3)[C@H](C2)N1C(=O)c1ccccc1-n1nccn1 (relative stereo) [Example 191, (2-(2H-1,2,3-triazol-2-yl)phenyl)((1S*,3R*,4R*,6R*)-6-((6,7-difluoroquinoxalin-2-yl)oxy)-3-methyl-2-azabicyclo[2.2.1]heptan-2-yl)methanone] |
| 5 | 5 | Cc1ccc(-n2nccn2)c(C(=O)N2[C@H](C)[C@H]3C[C@@H](Oc4cnc5ccccc5n4)[C@@H]2C3)n1 (relative stereo) [Example 183, (6-methyl-3-(2H-1,2,3-triazol-2-yl)pyridin-2-yl)((1S*,3R*,4R*,6R*)-3-methyl-6-(quinoxalin-2-yloxy)-2-azabicyclo[2.2.1]heptan-2-yl)methanone] |
| 7 | 8 | CC1C2CC(Oc3ccc(C(F)(F)F)cn3)C(C2)N1C(=O)c1cc(F)ccc1-c1ncccn1 (racemic) [Example 18, (R/S)-(5-fluoro-2-(pyrimidin-2-yl)phenyl)(−3-methyl-6-((5-(trifluoromethyl)pyridin-2-yl)oxy)-2-azabicyclo[2.2.1]heptan-2-yl)methanone] |
| 9 | 5 | Cc1ccc(-n2nccn2)c(C(=O)N2C(C)C3CC(Oc4ccc(C(F)(F)F)cn4)C2C3)n1 (single isomer, unassigned) [Example 22, (R/S)-(6-methyl-3-(2H-1,2,3-triazol-2-yl)pyridin-2-yl)(3-methyl-6-((5-(trifluoromethyl)pyridin-2-yl)oxy)-2-azabicyclo[2.2.1]heptan-2-yl)methanone] |
| 14 | 15 | Cc1cnc(C(=O)N2C(C)C3CC(Oc4ccc(C(F)(F)F)cn4)C2C3)c(-n2nccn2)c1 (racemic) [Example 11, (R/S)-(5-methyl-3-(2H-1,2,3-triazol-2-yl)pyridin-2-yl)(3-methyl-6-((5-(trifluoromethyl)pyridin-2-yl)oxy)-2-azabicyclo[2.2.1]heptan-2-yl)methanone] |
| 21 | 20 | Cc1ccc(-n2nccn2)c(C(=O)N2C(C)C3CC(Oc4ccc(C(F)(F)F)cn4)C2C3)n1 (single isomer, unassigned) [Example 3, (R/S)-(6-methyl-3-(2H-1,2,3-triazol-2-yl)pyridin-2-yl)(3-methyl-6-((5-(trifluoromethyl)pyridin-2-yl)oxy)-2-azabicyclo[2.2.1]heptan-2-yl)methanone] |
| 14 | 14 | C[C@@H]1[C@H]2C[C@@H](Oc3ccc(C(F)(F)F)cn3)[C@H](C2)N1C(=O)c1ncccc1-n1nccn1 (relative stereo) [Example 23, (3-(2H-1,2,3-triazol-2-yl)pyridin-2-yl)((1S*,3R*,4R*,6R*)-3-methyl-6-((5-(trifluoromethyl)pyridin-2-yl)oxy)-2-azabicyclo[2.2.1]heptan-2-yl)methanone] |
| 7 | 5 | Cc1cnc(C(=O)N2[C@H](C)[C@H]3C[C@@H](Nc4ccc(C(F)(F)F)cn4)[C@@H]2C3)c(-n2nccn2)c1 (relative stereo) [Example 66, (5-methyl-3-(2H-1,2,3-triazol-2-yl)pyridin-2-yl)((1S*,3R*,4S*,6R*)-3-methyl-6-((5-(trifluoromethyl)pyridin-2-yl)amino)-2-azabicyclo[2.2.1]heptan-2-yl)methanone] |
| 11 | 12 | CC1C2CC(Nc3cnc(C(F)(F)F)cn3)C(C2)N1C(=O)c1ccccc1-n1nccn1 (single isomer, unassigned) [Example 5B, (2-(2H-1,2,3-triazol-2-yl)phenyl)((1S*,3S*,4S*,6R*)-3-methyl-6-((5-(trifluoromethyl)pyrazin-2-yl)amino)-2-azabicyclo[2.2.1]heptan-2-yl)methanone] |
